Target: T1, PDGF-receptor beta enzyme comprising the tyrosine kinase domain (Homo sapiens, UniProt P09619)
T1 construct: from amino acid 545 to 1106 of GenBank Access NO: AAA36427
Assay: Inhibition of PDGF-receptor kinase activity (cell-free, PLC1 peptide, 33P Flashplate)
Format: biochemical
Settings: PDGF-R kinase activity

Amino acid sequences for entries named in this document (tags omitted). A change or cut given only in a name is not applied to a line headed by its entry.
UniProt P09619: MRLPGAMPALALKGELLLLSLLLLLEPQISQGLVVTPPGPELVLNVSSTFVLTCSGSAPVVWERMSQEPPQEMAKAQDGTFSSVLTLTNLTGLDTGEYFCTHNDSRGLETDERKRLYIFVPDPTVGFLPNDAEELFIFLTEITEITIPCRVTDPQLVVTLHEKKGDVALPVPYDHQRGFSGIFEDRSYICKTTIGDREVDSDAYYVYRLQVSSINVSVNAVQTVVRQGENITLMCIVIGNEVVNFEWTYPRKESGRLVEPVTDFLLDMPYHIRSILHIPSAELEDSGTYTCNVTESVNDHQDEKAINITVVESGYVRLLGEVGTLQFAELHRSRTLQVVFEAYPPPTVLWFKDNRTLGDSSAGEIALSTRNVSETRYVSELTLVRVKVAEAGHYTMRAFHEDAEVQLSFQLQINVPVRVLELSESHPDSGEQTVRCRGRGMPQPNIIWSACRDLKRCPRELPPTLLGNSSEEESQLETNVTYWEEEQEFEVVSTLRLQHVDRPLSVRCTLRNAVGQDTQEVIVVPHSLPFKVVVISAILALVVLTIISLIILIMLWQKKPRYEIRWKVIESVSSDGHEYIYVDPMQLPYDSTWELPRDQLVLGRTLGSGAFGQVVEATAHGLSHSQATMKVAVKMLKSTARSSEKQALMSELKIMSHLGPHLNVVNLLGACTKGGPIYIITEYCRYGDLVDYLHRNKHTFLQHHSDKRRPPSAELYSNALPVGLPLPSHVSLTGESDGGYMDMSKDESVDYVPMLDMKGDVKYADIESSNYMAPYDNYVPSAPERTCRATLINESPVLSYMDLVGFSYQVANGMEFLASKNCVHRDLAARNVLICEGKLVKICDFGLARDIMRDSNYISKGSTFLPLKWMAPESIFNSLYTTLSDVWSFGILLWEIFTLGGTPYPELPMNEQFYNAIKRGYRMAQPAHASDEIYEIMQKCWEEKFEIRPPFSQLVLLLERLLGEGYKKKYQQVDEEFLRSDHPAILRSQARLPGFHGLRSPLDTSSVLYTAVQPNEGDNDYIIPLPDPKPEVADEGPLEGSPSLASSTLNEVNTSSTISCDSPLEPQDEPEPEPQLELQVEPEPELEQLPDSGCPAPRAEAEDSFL

COc1cccc(Nc2[nH]nc3c2Cc2cc(OC)c(OC)cc2-3)c1 [Compound 29, (6,7-Dimethoxy-2,4-dihydro-indeno[1,2-c]pyrazol-3-yl)-(3-methoxy-phenyl)-amine]
IC50: 10 nM

COc1cc2c(cc1OC)-c1n[nH]c(Nc3cccc(C)c3)c1C2 [Compound 32, (6,7-Dimethoxy-2,4-dihydro-indeno[1,2-c]pyrazol-3-yl)-m-tolyl-amine]
IC50: 12 nM

— US7196110B2, “N-substituted tricyclic 3-aminopyrazoles as inhibitors for the treatment of cell proliferative disorders” (Janssen Phamaceutica N.V., priority 2002, dated 2007)
